{"source": "patent US5821219A", "about": "(priority 1995, dated 1998)", "key": {"mice [1]": {"tested_on": "mice", "test": "Open-field observation and locomotor activity (Digiscan) in mice", "format": "in vivo", "details": "larger doses, above 1 nmole/2 μL/mouse"}, "mice [2]": {"tested_on": "mice", "test": "Reversal of morphine analgesia, 49° C. tail withdrawal latency", "details": "25 nmol OFQ icv"}, "mice [3]": {"tested_on": "mice", "details": "10 nmole OFQ icv"}, "mice [4]": {"tested_on": "mice", "details": "mouse, in vivo"}, "mice [5]": {"tested_on": "mice", "test": "Precipitation of withdrawal (jumping) in morphine dependent C57BL/6J mice", "details": "OFQ doses >5 nmole"}}}
{"smiles": "CC(C)C[C@H](NC(=O)[C@H](CCCCN)NC(=O)[C@H](CCCN=C(N)N)NC(=O)[C@H](C)NC(=O)[C@H](CO)NC(=O)[C@H](CCCCN)NC(=O)[C@H](CCCN=C(N)N)NC(=O)[C@H](C)NC(=O)CNC(=O)[C@@H](NC(=O)[C@H](Cc1ccccc1)NC(=O)CNC(=O)CNC(=O)[C@@H](N)Cc1ccccc1)[C@@H](C)O)C(=O)N[C@@H](C)C(=O)N[C@@H](CC(N)=O)C(=O)N[C@@H](CCC(N)=O)C(=O)O", "note": "[orphanin FQ]", "values": [{"measurement": "behavioral signs in open-field observation", "setting": "mice [1]", "value": "profound influence on locomotor activity, as well as a decrease in muscle tone, a loss of righting reflex, and ataxia"}, {"measurement": "marked atonia and flaccid paralysis", "setting": "mice [2]", "value": "up to 50 % of mice"}, {"measurement": "hyperalgesia in TW test", "setting": "mice [3]", "value": "no evidence of hyperalgesia"}, {"measurement": "side effects, intrathecal", "setting": "mice [4]", "value": "hind limb paralysis and decrease in locomotor activity"}, {"measurement": "toe- and tail-pinch reflexes", "setting": "mice [4]", "value": "normal toe- and tail-pinch reflexes"}, {"measurement": "atonia", "setting": "mice [5]", "value": "produced atonia in some morphine-dependent mice"}]}
